This is an account of results in PubChem BioAssay AID2205 (University of Pittsburgh Molecular Library Screening Center, 2009).

The list shows a part of the results, in another mix than the full data. Some results for these compounds are left out of this collection, so the calls shown say nothing about other tests. Calls of active or inactive are those of the source.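 The calls were made as follows: active = plate Z-score above 3 for both tubulin-high and condensed-nucleus cell shares, with cell loss under 80%, at 10 µM; inactive = the rest, inconclusive results apart.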

The test can be described thus: tubulin staining increase by stabilizing compounds – imaging, high-content imaging, primary screen (AID 2205). The settings on record: HeLa tubulin immunostaining HCS, 24 h; at 10 µM; active compounds read high; share of cells brighter than vehicle mean+2SD.
In the case of `COc1cccc(C(=O)NCC2(N3CCCCC3)CCCCC2)c1`, the % tubulin-high responders was inactive: 3.88%.
`CN(C)c1cccc(C(=O)NCC2(N(C)C)CCCCC2)c1`: the % tubulin-high responders is inactive: 3.93%.
To `O=C(OC1CN2CCC1CC2)C(CO)(c1ccccc1)c1ccccc1` (centres undefined) belongs inactive: 2.96%.
With `CC(C)N1C(=O)CC2(CCN(CCOC(=O)C(O)(c3ccccc3)c3ccccc3)CC2)C1=O`, the % tubulin-high responders was inactive: 2.01%.
Turning to `O=C(NCC1(N2CCCCC2)CCCCC1)c1cc([N+](=O)[O-])ccc1Cl`, the % tubulin-high responders is inactive: 2.32%.
Turning to `C=CCN1CCN(CCOC(=O)C(O)(c2ccccc2)c2ccccc2)CC1`, the % tubulin-high responders was inactive: 1.08%.
Next, `CCN1CCCC(OC(=O)C2(O)c3ccccc3C=Cc3ccccc32)C1` (centres undefined): inactive: 2.97%; `CN(C)C1CCCC1OC(=O)C(O)(c1ccccc1)c1ccccc1` (centres undefined): inactive: 3.95%; `Cc1ccccc1C(=O)NCC1(N2CCCCC2)CCCCC1`: inactive: 1.55%.
